Data from publication PMC9798557 (2022).

Tests used:
[1] = target: human CD38 (human, UniProt P28907 45-300); experiment: SPR
[2] = target: T1, CD38 on CD38-positive cell lines (human, UniProt P28907 1-300); experiment: FACS; H929 cells
[3] = target: T1, CD38 on CD38-positive cell lines; experiment: FACS; MM1S cells
[4] = target: T1, CD38 on CD38-positive cell lines; experiment: FACS; Raji cells
[5] = target: T1, CD38 on CD38-positive cell lines; experiment: FACS; Daudi cells
[6] = target: T1, CD38 on CD38-positive cell lines; experiment: FACS; Ramos cells
[7] = target: T1, CD38 on CD38-positive cell lines; experiment: FACS; MOLP-8 cells
[8] = target: T1, CD38 on CD38-positive cell lines; experiment: FACS; SU-DHL-6 cells
[9] = target: T1, CD38 on CD38-positive cell lines; experiment: FACS; RPMI 8226 cells

B1: FTL004, humanized IgG1κ anti-CD38 mAb (antibody, V domains shown)
VH: QVQLVQSGSELKKPGASVKVSCKASGYTFTDYNVHWIRQAPGQGLEWIGYFYPRNGATHYNQKFTGRAVLSADTSVSTAYLQISSLKAEDTAVYFCARGETPGTFPYWGQGTLVTVSS
VL: DIVLTQSPASLAVSPGQRATITCRASESVDNFGITFMHWYQQKPGQPPKLLIYRASNLESGVPARFSGSGSRTDFTLTINPVEANDTANYYCQQSSKDPRTFGQGTKLEIK
Q: With B1 as the binder, how does the koff [1] read?
A: Its koff is 0.00076 s⁻¹.

Q: What about the EC50 [2] of the same binder?
A: Its EC50 is 0.6 µg/mL.

Q: What about the EC50 [3] of the same binder?
A: The EC50 was 0.41 µg/mL.

Q: And the EC50 [4]?
A: The EC50 was 0.355 µg/mL.

Q: And the EC50 [5]?
A: The EC50 was 0.31 µg/mL.

Q: And the EC50 [6]?
A: The EC50 was 0.401 µg/mL.

Q: And the EC50 [7]?
A: Its EC50 is 0.372 µg/mL.

Q: And the EC50 [8]?
A: The EC50 was 0.436 µg/mL.

Q: What about the EC50 [9] of the same binder?
A: Its EC50 is 1.15 µg/mL.
